Molecules are shown by their SMILES. Several values for one entry are separate records, joined by “and”; a condition that tells them apart may be missing. Equal entries are not always repeated. The list shows a part of the results, in another mix than the full data. Some tests of the compounds listed are not included; inactive here does not mean inactive elsewhere. Activity calls are given as the source filed them. Calls follow the shape of the dose curve; as a rule, active = well fitted inhibition curve with a large enough effect; inconclusive = small, poorly fitted or top-dose-only effect; inactive = flat fitted curve, though single readings scatter.
% is scaled to controls: 0 for no effect and ±100 for the full control effect.

This assay has as its target pyruvate kinase (Trypanosoma brucei) (UniProt Q57TT1). The experiment in a line: qHTS of Trypanosoma Brucei Inhibitors. Also: nearly all actives have a fitted effect of over 50% in size. The settings on record: TbPYK enzyme, Kinase-Glo Plus ATP luminescence, 45 min; at 76.8 µM (top of the series). In general terms: Quantitative high-throughput screening tests each substance at several concentrations.
Turning to `COc1cc(C(=O)NCC2(N(C)C)CCCCC2)c([N+](=O)[O-])cc1OC`, the activity, negative = inhibition was inactive: 0.977%.
As for `CN(C)C1(CNC(=O)c2ccc(Br)cc2)CCCCC1`, the figure is inactive: 5.99%; as for `O=C(NCC1(N2CCCCC2)CCCCC1)c1cccc(Cl)c1`, inactive: 0.265%.
With `COc1ccc(C(=O)NCC2(N(C)C)CCCCC2)cc1Cl`, the activity, negative = inhibition is inactive: -7.17%.
As for `COc1ccc(Cl)cc1C(=O)NCC1(N(C)C)CCCCC1`, the figure is inactive: 0.539%; as for `COc1cccc(C(=O)NCC2(N3CCCCC3)CCCCC2)c1`, inactive: -22.5%.
Under `CC(C)COc1ccc(C(=O)NCC2(N(C)C)CCCCC2)cc1` stands inactive: -5.32%; under `O=C(OC1CN2CCC1CC2)C(CO)(c1ccccc1)c1ccccc1` (configuration not stated), inactive: -4.39%; under `COc1cccc(C(=O)NCC2(N3CCOCC3)CCCCC2)c1`, inactive: -11.4%.
`CN(C)c1cccc(C(=O)NCC2(N(C)C)CCCCC2)c1`: the activity, negative = inhibition is inactive: -3.19%.
As for `O=C(OCCN1CCCC1)C(O)(c1ccccc1)c1ccccc1`, the figure is inactive: 2.96%.
Regarding `CC(C)Oc1ccc(C(=O)NCC2(N(C)C)CCCCC2)cc1`, the activity, negative = inhibition was inactive: -1.41% and inactive: 0.804%.
Consider `COc1ccc(Br)c(C(=O)NCC2(N3CCCCC3)CCCCC2)c1`, for which the activity, negative = inhibition is inactive: 1.47%.
Take `Cc1cccc(C(=O)NCC2(N(C)C)CCCCC2)c1`: the activity, negative = inhibition is inactive: 1.09%.
Under `COc1cc(C(=O)NCC2(N(C)C)CCCCC2)cc(OC)c1OC` stands inactive: 0.856%.
Turning to `C=C(C)C#CC(O)(C(=O)OC1CCN(C)CC1)c1ccccc1` (configuration not stated), the activity, negative = inhibition is inactive: 6.58%.
Under `CN1[C@@H]2CC[C@H]1CC(OC(=O)C(O)(c1ccccc1)c1ccccc1)C2` (some centres not stated) stands inactive: -9.22%; under `O=C(NCC1(N2CCCCC2)CCCCC1)c1cc([N+](=O)[O-])ccc1Cl`, inactive: 3.43%.
As for `CN(C)C1(CNC(=O)c2ccccc2F)CCCCC1`, the figure is inactive: -5.4%; as for `Cc1ccc(C(=O)NCC2(N3CCCCC3)CCCCC2)cc1`, inactive: -7.62%; as for `CC(C)N1C(=O)CC2(CCN(CCOC(=O)C(O)(c3ccccc3)c3ccccc3)CC2)C1=O`, inactive: -10.4%.
For `COc1cc(SC)ccc1C(=O)NCC1(N(C)C)CCCCC1`, the activity, negative = inhibition was inactive: 0.515%.
Under `CN(C)C1(CNC(=O)c2cccc(Cl)c2)CCCCC1` stands inactive: 3.98%; under `CCN(CC)CC(C)C(C)OC(=O)C(O)(c1ccccc1)c1ccccc1` (configuration not stated), inactive: 1.5%; under `CN1CCCC(OC(=O)C(O)(c2ccccc2)c2ccccc2)C1` (configuration not stated), inactive: 19.5%.
As for `CCCCOc1ccccc1C(=O)NCC1(N(C)C)CCCCC1`, the figure is inactive: -4%; as for `CN(C)c1ccc(C(=O)NCC2(N(C)C)CCCCC2)cc1`, inactive: 1.86%; as for `CN(C)C1CCCC1OC(=O)C(O)(c1ccccc1)c1ccccc1` (configuration not stated), inactive: -19.5%.
As for `Cc1ccccc1C(=O)NCC1(N2CCCCC2)CCCCC1`, the figure is inactive: 7.04%.
In the case of `CN(C)C1(CNC(=O)c2ccccc2[N+](=O)[O-])CCCCC1`, the activity, negative = inhibition is inactive: 3.99%.
As for `O=C(NCC1(N2CCCCC2)CCCCC1)c1cccc(Br)c1`, the figure is inactive: -0.427%.
As for `CCN1CCCC(OC(=O)C2(O)c3ccccc3C=Cc3ccccc32)C1` (configuration not stated), the figure is inactive: 4.12%; as for `Cc1cc(C(=O)NCC2(N3CCCCC3)CCCCC2)ccc1[N+](=O)[O-]`, inactive: 3.42%.
As for `CCOc1cccc(C(=O)NCC2(N(C)C)CCCCC2)c1`, the figure is inactive: 4.97%; as for `COc1ccc(C(=O)NCC2(N(C)C)CCCCC2)cc1`, inactive: 4.68%; as for `O=C(NCC1(N2CCCCC2)CCCCC1)c1cc(F)c(F)cc1Cl`, inactive: -1.97%.
As for `C=CCN1CCN(CCOC(=O)C(O)(c2ccccc2)c2ccccc2)CC1`, the activity, negative = inhibition was inactive: 2.32%.

The record behind these values is PubChem BioAssay AID624173 (National Center for Advancing Translational Sciences (NCATS), 2012).
